{"sequences": {"note": "The chains behind the UniProt entries cited, without tags or fusion partners.", "UniProt P02554, whole entry": "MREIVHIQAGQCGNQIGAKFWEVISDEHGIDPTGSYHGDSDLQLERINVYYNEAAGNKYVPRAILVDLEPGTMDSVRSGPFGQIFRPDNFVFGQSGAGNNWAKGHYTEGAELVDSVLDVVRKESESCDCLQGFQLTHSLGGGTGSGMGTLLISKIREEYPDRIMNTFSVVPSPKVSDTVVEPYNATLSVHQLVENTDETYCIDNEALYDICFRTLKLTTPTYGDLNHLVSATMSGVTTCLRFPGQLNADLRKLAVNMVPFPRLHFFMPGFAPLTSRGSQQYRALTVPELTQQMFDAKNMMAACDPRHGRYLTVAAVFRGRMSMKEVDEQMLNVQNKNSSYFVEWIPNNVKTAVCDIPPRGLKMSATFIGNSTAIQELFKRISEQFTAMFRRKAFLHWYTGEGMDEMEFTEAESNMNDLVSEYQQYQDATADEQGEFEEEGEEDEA"}, "source": "patent US9944597B2", "about": "“Polysubstituted pyrroles having microtubule-disrupting, cytotoxic and antitumor activities and methods of use thereof” (THE BOARD OF REGENTS OF THE UNIVERSITY OF TEXAS SYSTEM, priority 2013, dated 2018)", "key": {"[1]": {"target": "colchicine binding site on tubulin (Sus scrofa, UniProt P02554)", "experiment": "Colchicine site binding, fluorometric assay"}, "[2]": {"target": "T1, purified porcine brain tubulin (Sus scrofa, UniProt P02554)", "T1 construct": "of Purified Porcine Brain Tubulin; from tissue; host or cells: porcine brain", "experiment": "Inhibition of polymerization of purified tubulin (absorbance at 340 nm)", "format": "biochemical"}}}
{"smiles": "COc1ccc(/C=C\\c2cc(OC)c(OC)c(OC)c2)cc1O", "note": "[CA-4, Combretastatin A-4, reference compound]", "values": [{"measurement": "inhibition of colchicine binding to tubulin", "setting": "[1]; at 10 μM", "result": "approximately 80%"}, {"measurement": "effect on colchicine binding (FIG. 9)", "setting": "[1]; result in words", "result": "inhibits colchicine binding"}, {"measurement": "% Inhibition of Tubulin Polymerization", "setting": "[2]; compound at 2 μM", "result": 16, "unit": "%"}, {"measurement": "% Inhibition of Tubulin Polymerization", "setting": "[2]; compound at 10 μM", "result": 82, "unit": "%"}]}
